PubChem BioAssay AID1446 (The Scripps Research Institute Molecular Screening Center, 2008)
The list shows a part of the results, in another mix than the full data. The source made the active and inactive calls.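 How the source made its calls: active means inhibition above the campaign mean plus 3 SD over all tested compounds (cut at about 24% in these data); inactive means the rest.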

Assay: reduced viability of JAK2V617F-dependent Ba/F3 cells, primary screen, JAK2V617F inhibitor project, cell-based, Ba/F3 EpoR-JAK2V617F, luminescence (AID 1446);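 further: cytokine-independent growth of Ba/F3 cells driven by EpoR plus mutant JAK2; 0% = DMSO-treated cells and 100% = JAK inhibitor I control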
Details: ATP luminescence, at 5.6 µM, stronger effect = higher value

| Compound | inhibition |
| --- | --- |
| CCCOc1ccc(C)cc1CN(CCCl)CCCl | inactive: -4.35% |
| COc1cc(OC)cc(C(=O)NCC2(N3CCOCC3)CCCCC2)c1 | inactive: 1.31% |
| CCC(CO)(C(=O)OC1CN2CCC1CC2)c1ccccc1 (centres undefined) | inactive: -2.23% |
| CC(C)(C)OC(=O)N1CCC(Nc2ccccc2)CC1 | inactive: 2.23% |
| CCOc1ncccc1C(=O)NCC1(N2CCOCC2)CCCCC1 | inactive: -1.71% |
| CN(C)c1ccc(C(=O)NCC2(N3CCCCC3)CCCCC2)cc1 | inactive: 0.21% |
| CCN1CCC(Nc2cccc(F)c2)CC1 | inactive: 3.83% |
| c1ccc(CN2CCC(Nc3ccccc3)CC2)cc1 | inactive: 0.49% |
| N#Cc1ccc(C(=O)NCC2(N3CCCCC3)CCCCC2)cc1 | inactive: -1.18% |
| O=C(OC1CN2CCC1CC2)C1c2ccccc2C=Cc2ccccc21 (centres undefined) | inactive: -1.92% |
| N/C(=N\O)c1c(N)no[n+]1[O-] | inactive: 2.1% |
| COc1ccc(C(=O)NCC2(N3CCOCC3)CCCCC2)cc1OC | inactive: -0.68% |
| CN1CCC(Nc2cccc(F)c2)CC1 | inactive: -1.96% |
| CC(C)c1ccc(NC2CCN(C(=O)OC(C)(C)C)CC2)cc1 | inactive: -3.11% |
| CN(C)c1cccc(C(=O)NCC2(N3CCCCC3)CCCCC2)c1 | inactive: -1.96% |
| COc1ccc(CN(CCCl)CCCl)cc1Cl | inactive: -4.02% |
| O=C(NCC1(N2CCOCC2)CCCCC1)c1cc(=O)[nH]c2ccccc12 | inactive: 0% |
| COc1ccc(NC2CCN(C(=O)OC(C)(C)C)CC2)cc1 | inactive: -3.88% |
| CN1CCN(CCOC(=O)C(O)(c2ccccc2)c2ccccc2)CC1 | inactive: -2.97% |
| N#CC1(Nc2ccccc2)CCN(CCc2ccccc2)CC1 | inactive: -6.44% |
| O=C(NCC1(N2CCCCC2)CCCCC1)c1cccc([N+](=O)[O-])c1 | inactive: -1.38% |
| Cc1ccc(OCC(C)C)c(CN(CCCl)CCCl)c1 | inactive: 3.66% |
| COc1ccc(NC2CCN(CCc3ccccc3)CC2)c(OC)c1 | inactive: -3.84% |
| CCOc1ccc(C)cc1CN(CCCl)CCCl | inactive: -0.98% |
| N#CC1(Nc2ccccc2)CCN(Cc2ccccc2)CC1 | inactive: -3.67% |
| O=C(OC1CN2CCC1CC2)C1c2ccccc2Oc2ccccc21 (centres undefined) | inactive: 1.51% |
| CCOC(=O)N1CCC(Nc2ccc(OC)cc2)CC1 | inactive: 1.71% |
| O=C(NCC1(N2CCOCC2)CCCCC1)c1cc2ccccc2o1 | inactive: -1.29% |
| COc1ccc(C(=O)NCC2(N3CCCCC3)CCCCC2)c(OC)c1OC | inactive: -1.49% |
